## Antibody variant affinities, Ab-14 heavy chain, assay B

Target: peptide PDVDLGDISGINAS, taken from heptad repeat 2 (HR2) of SARS-CoV-2 spike.

The variants keep the light chain, the linker and the frameworks of Ab-14 (scFv order VH, three GGGGS repeats, VL).
VH: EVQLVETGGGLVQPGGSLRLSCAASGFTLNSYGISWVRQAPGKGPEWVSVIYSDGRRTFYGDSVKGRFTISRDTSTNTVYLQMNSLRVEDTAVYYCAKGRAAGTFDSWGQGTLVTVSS
VL: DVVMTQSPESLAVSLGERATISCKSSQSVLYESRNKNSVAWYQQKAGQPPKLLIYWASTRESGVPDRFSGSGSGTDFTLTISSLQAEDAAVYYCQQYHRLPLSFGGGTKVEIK

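The parent was found by panning a naive human phage display library on the peptide. The variants were designed computationally from a first round of random CDR variants and then made and measured. Several design methods are mixed in this list. The scFvs were displayed on barcoded MATa yeast, the peptide on MATalpha yeast. Binding brings cells together so that they mate, and sequencing counts the barcode pairs among the diploids. The ratio of observed to expected reads was calibrated, replicate by replicate, on BCL2-family standards whose Kd was known from biolayer interferometry. The assay was run in six technical replicates.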

The parent's heavy chain CDRs are GFTLNSYGIS, VIYSDGRRTFYGDSVK, GRAAGTFDS; each variant's own CDRs replace them letter for letter.
The read-out is the apparent dissociation constant on a log10 scale (nM): the lower, the stronger.
Replicates are averaged; those with no signal do not enter the mean.
Where no diploid with the target was found in any replicate, the entry reads "no signal": below detection, most likely a poor binder, though not proof of it.
Background: pairings of all heavy chain designs with three empty control strains gave a value in 1% of cases (median 2.08, 5th percentile 0.84). Values in that range, when seen in few replicates, are hard to tell from nonspecific mating. The control count says in how many pairings with the empty strains this scFv gave a signal.
Values of this round are not directly comparable with the first-round values of the same sequences.
The authors' rule: three or more of the six replicates give a measured affinity, fewer mean a poor binder.
The parent sequence was in this pool as ten entries: three were never detected, three once, and four in most replicates, with averages from 0.34 to 2.37.

CDR-H1 | CDR-H2 | CDR-H3 | mean, log10 nM | detected | signal with controls
GFELNSYGIS | VIYADGRRTFYGDSVK | GDAAGTFDS | -0.32 | 6/6 | 0/18
GFDLNEYGIS | VIYADGSRTFYSDSVK | GNQAGTFDT | -0.64 | 6/6 | 1/18
GFNLDEYGIS | VIYADGKRTFYADSVK | GQIAGTFIV | -0.22 | 6/6 | 0/18
GFTLNSYGIS | VIYSDGKRTFYSDNVK | GEAAGTFDS | 0.13 | 4/6 | 0/18
GFSLNEYGIS | VIYSDGRRTFYGDSVK | GRTAGTFDF | 0.23 | 6/6 | 0/18
GFTLNLYGIS | VIYSDGRRTFYGDSVK | GRAAGTWFS | no signal | 0/6 | 0/18
GFTLNQVGIS | VIYSDGRRTFYSDSVK | GRAAGFFDS | 2.15 | 1/6 | 0/18
GFWLNDYGIS | VIYSDGRRTFYTDSVK | GRTAGTFDS | 1.67 | 4/6 | 0/18
GFDLDEYGIS | VIYADGMRTAYSDSVK | GETAGTFDI | -0.48 | 6/6 | 0/18
GFDLDEYGIS | VIYADGRRTAYADSVK | GNTAGTFDM | -0.70 | 6/6 | 0/18
GFQLNAYGIS | VIYSDGRRTFYGDSVK | GRTAGTFDS | 1.23 | 4/6 | 0/18
GFELNSYGIS | VIYSDGRRTFYADSVK | GRLAGTFDK | 1.00 | 6/6 | 0/18
GFDLQEYGIS | VIYADGHRTAYTNKVK | GGISMISVT | no signal | 0/6 | 0/18
GFTLNSYGIS | VIYSDGRRTFYSDSVK | GEAAGTFDR | 1.07 | 6/6 | 0/18
GFTLESYGIS | VIYSDGMRTFYADSVK | GRTAGTFDS | 0.75 | 6/6 | 0/18
GFDLNEYGIS | VIYADGRRTAYSDSVK | GNQAGTFDV | -0.54 | 6/6 | 0/18
GDSLEEYGIS | VIYADGKRTAYKNKFK | GQVAGYFDV | 3.67 | 1/6 | 0/18
GFTMNSYGIS | VIYSDGRRTFYGDSVK | GREAGTFDS | 1.18 | 4/6 | 0/18
GFDLDEYGIS | VIYADGVRTAYSDSVK | GNTAGTFDI | -0.18 | 6/6 | 0/18
GFDLNSYGIS | VIYSDGRRTFYADSVK | GRCAGTFDS | 1.15 | 6/6 | 1/18
GFTLNEYGIS | VIYSDGRRTFYADSVK | GRAAVTFDK | 0.21 | 6/6 | 0/18
GFDLGEYGIS | VIYADGRRFAYSQSVK | GLNEGMLDI | no signal | 0/6 | 0/18
GQDINEYGIS | VIYADGLRQAYSENVK | GNINQFDDV | no signal | 0/6 | 0/18
GFQLNSYGIS | VIYSDGRRTFYGDSVK | GRAAGTFDV | 1.25 | 5/6 | 0/18
GFNLDEIGIS | VIYADGMRTVYSQDVK | GQNVEFTVV | no signal | 0/6 | 0/18
GFNLNSYGIS | VIYSDGRRTFYADSVK | GRIAGTFDS | 0.99 | 6/6 | 2/18
GFNLEDYGIS | VIYADGKRTFYVDSVK | GKVAGTFDV | -0.63 | 6/6 | 0/18
GFTLNSYGIS | VIYSDGRRTFYADSVE | LQTAGTFSS | no signal | 0/6 | 1/18
GFTNNSYGIS | VIYSDGERTFYGDSVV | GRAAGTFDS | no signal | 0/6 | 0/18
GFELNEYGIS | VIYSDGRRTFYMDSVK | GRTAGTFDT | 0.27 | 6/6 | 0/18
GFTLNSYGIS | VIYADGRRTFYGDSVK | GKAAGTFKK | no signal | 0/6 | 1/18
GFDLNEYGIS | VIYADGRRTFYTDSVK | GGNAGTFDK | -1.02 | 6/6 | 0/18
GFTLNSYGIS | VIYSDGRRTFYSDSVK | GHVGGTFDS | 1.32 | 6/6 | 0/18

Further variants, results first:

mean, log10 nM | detected | signal with controls | CDR-H1 | CDR-H2 | CDR-H3
-0.08 | 1/6 | 0/18 | GFELNSYGIS | VIYSDGRRTFYSDSVK | GMAAGTFDS
no signal | 0/6 | 0/18 | GETINSYGIY | VIYSDGKRTAYGDSVK | CRAAGTFVS
1.94 | 5/6 | 2/18 | GFSLNSYGIS | VIYSDGRRTFYGDSVK | GRSAGTFDK
no signal | 0/6 | 0/18 | GADLNEYGIS | VIYADGDRKAFQPDVK | GTNAGDFDI
2.01 | 2/6 | 0/18 | MFSLNSYGIS | VIYSDGRRTFYKDSVK | GQTAGTFDS
0.10 | 6/6 | 0/18 | GFDLNEYGVS | VIYADGQRTQYTDKVK | GGFSAAITN
1.17 | 2/6 | 0/18 | GFDLNEYGIS | VIYADGMRTFYTDSVK | GEFAGTFDM
no signal | 0/6 | 0/18 | GFDINEYGIS | VIYADGRRVEYNDKVK | GMLTGTFDQ
2.82 | 1/6 | 0/18 | GFDIDEMGIS | VIYADGRRTAYSNAVK | GNNVYGLMS
2.40 | 6/6 | 0/18 | GFDLNEYGIS | VIYADGRRTAYADSVK | GEHAGTFDI
0.14 | 6/6 | 1/18 | GFSLNEYGIS | VIYSDGRRTFYGDRVK | GRTAGTFDT
-0.60 | 6/6 | 0/18 | GFDLNEYGIS | VIYADGRRTFYADSVK | GQLAGTFDK
no signal | 0/6 | 0/18 | GFDLNSYGIS | VIYSDGRRTFYGDSVK | GRIAGWFNS
-0.33 | 6/6 | 0/18 | GFSLNSYGIS | VIYSDGRRTFYSDSVK | GATAGTFDS
no signal | 0/6 | 0/18 | GFSLNDYGIS | VIYSDGRRTFYGDSVK | GRAALTFDQ
1.38 | 6/6 | 0/18 | GFTLNEYGIS | VIYSDGRRTQYDDSVK | GRAAGTFDS
1.14 | 4/6 | 0/18 | GFSLNSYGIS | VIYSDGRRTFYQDKVK | GRAAGTFDS
no signal | 0/6 | 0/18 | GFTLNDYGIS | VIYCDGRRTFYGDSVK | GRAALTFIS
2.51 | 1/6 | 0/18 | GFTLNSYGIS | VIYADGRRTFYGDSTK | GRAAGTNKS
-0.20 | 6/6 | 0/18 | GFQLNEYGIS | VIYSDGRRTFYGDSVK | GRTAGTFDA
0.69 | 6/6 | 0/18 | GFSLNSYGIS | VIYSDGRRTFYADSVK | GRTAGTFDR
-0.56 | 6/6 | 0/18 | GFDLNEYGIS | VIYADGVRTAYADSVK | GQVAGTFDV
0.03 | 6/6 | 0/18 | GFDLNEYGIS | VIYADGSRTAYADSVK | GNNAGTFDM
1.33 | 6/6 | 0/18 | GFTLNSYGIS | VIYSDGRRTFYGDSVK | GRIAGTFDT
-0.31 | 6/6 | 0/18 | GFDIDEYGIS | VIYADGRRTFYADSVK | GENAGTFDV
0.40 | 6/6 | 0/18 | GFTLNEYGIS | VIYSDGRRTFYGESVK | GRAAVTFDS
no signal | 0/6 | 0/18 | GMGLDEYGIS | VIYADGMRTSYDNSVK | GAWAGTFDE
no signal | 0/6 | 0/18 | EFNLNSYGIS | VIYSDGRRTFYGDSVK | GRQAGTFDS
1.25 | 5/6 | 0/18 | GFTLNKYGIS | VIYSDGRRTFYSDSVK | GRDAGTFDS
no signal | 0/6 | 1/18 | GFDLEKYGIH | VIYADGIRKSYSDSVK | GDYSGTFYV
no signal | 0/6 | 0/18 | GFVFDEYGIS | VIYADGKRQYYQDKVK | GENTGNFDT
no signal | 0/6 | 0/18 | KFTLNSYGIS | VIYSDGRRTGYGDSVK | GVAAGIFDS
0.54 | 1/6 | 0/18 | GFDLNEYGIS | VIYADGMRTFYADSVK | GNNAGTFIS

Again, the first 4 entries without any signal:

CDR-H1,CDR-H2,CDR-H3,"mean, log10 nM",detected,signal with controls
GFTLNLYGIS,VIYSDGRRTFYGDSVK,GRAAGTWFS,no signal,0/6,0/18
GFDLQEYGIS,VIYADGHRTAYTNKVK,GGISMISVT,no signal,0/6,0/18
GFDLGEYGIS,VIYADGRRFAYSQSVK,GLNEGMLDI,no signal,0/6,0/18
GQDINEYGIS,VIYADGLRQAYSENVK,GNINQFDDV,no signal,0/6,0/18

From the AlphaSeq antibody data of Li et al. 2023 (doi:10.1038/s41467-023-39022-2), copy in the FLAb collection.